Results reported in ChEMBL document CHEMBL4011622, “The Structure-Activity Relationship of a Tetrahydroisoquinoline Class of N-Methyl-d-Aspartate Receptor Modulators that Potentiates GluN2B-Containing N-Methyl-d-Aspartate Receptors” (J Med Chem, 2017).

The chains behind the UniProt entries cited, without tags or fusion partners. Where a name states a change or a piece, a line headed by the entry shows the natural chain unless it says otherwise.
UniProt Q62645, whole entry, looked up: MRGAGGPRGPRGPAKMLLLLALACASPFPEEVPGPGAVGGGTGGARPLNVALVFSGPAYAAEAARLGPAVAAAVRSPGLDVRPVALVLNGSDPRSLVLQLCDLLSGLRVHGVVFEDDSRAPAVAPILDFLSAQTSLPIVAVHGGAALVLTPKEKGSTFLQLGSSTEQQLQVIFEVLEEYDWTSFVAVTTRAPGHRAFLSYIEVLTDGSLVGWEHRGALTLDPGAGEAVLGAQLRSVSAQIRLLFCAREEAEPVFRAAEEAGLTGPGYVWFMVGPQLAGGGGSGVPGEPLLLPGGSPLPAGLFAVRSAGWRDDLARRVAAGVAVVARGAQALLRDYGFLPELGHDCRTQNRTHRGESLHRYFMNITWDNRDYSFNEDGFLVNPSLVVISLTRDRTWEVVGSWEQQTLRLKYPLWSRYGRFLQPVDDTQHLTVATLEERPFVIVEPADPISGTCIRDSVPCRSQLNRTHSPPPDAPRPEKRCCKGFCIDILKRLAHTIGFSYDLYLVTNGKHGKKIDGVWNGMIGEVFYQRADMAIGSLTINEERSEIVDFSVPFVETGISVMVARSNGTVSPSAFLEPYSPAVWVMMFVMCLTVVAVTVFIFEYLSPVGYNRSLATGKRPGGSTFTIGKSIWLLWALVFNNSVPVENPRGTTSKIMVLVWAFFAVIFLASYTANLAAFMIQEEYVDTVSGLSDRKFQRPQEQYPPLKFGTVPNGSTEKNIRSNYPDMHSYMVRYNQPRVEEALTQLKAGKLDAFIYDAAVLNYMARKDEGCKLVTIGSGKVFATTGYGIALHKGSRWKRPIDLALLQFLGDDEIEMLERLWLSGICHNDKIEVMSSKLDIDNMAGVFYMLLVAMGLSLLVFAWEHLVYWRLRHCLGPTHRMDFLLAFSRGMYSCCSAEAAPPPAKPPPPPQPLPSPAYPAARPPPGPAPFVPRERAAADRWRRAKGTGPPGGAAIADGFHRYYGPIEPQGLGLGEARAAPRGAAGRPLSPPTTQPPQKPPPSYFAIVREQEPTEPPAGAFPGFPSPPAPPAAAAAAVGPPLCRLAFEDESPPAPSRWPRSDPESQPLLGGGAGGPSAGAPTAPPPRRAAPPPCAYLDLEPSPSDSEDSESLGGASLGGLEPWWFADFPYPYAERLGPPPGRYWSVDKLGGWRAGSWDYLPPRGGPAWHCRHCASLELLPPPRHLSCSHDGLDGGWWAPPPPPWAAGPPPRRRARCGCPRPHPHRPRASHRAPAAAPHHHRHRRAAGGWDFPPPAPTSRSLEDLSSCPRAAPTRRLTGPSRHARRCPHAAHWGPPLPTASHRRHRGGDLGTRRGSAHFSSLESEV
UniProt Q00961: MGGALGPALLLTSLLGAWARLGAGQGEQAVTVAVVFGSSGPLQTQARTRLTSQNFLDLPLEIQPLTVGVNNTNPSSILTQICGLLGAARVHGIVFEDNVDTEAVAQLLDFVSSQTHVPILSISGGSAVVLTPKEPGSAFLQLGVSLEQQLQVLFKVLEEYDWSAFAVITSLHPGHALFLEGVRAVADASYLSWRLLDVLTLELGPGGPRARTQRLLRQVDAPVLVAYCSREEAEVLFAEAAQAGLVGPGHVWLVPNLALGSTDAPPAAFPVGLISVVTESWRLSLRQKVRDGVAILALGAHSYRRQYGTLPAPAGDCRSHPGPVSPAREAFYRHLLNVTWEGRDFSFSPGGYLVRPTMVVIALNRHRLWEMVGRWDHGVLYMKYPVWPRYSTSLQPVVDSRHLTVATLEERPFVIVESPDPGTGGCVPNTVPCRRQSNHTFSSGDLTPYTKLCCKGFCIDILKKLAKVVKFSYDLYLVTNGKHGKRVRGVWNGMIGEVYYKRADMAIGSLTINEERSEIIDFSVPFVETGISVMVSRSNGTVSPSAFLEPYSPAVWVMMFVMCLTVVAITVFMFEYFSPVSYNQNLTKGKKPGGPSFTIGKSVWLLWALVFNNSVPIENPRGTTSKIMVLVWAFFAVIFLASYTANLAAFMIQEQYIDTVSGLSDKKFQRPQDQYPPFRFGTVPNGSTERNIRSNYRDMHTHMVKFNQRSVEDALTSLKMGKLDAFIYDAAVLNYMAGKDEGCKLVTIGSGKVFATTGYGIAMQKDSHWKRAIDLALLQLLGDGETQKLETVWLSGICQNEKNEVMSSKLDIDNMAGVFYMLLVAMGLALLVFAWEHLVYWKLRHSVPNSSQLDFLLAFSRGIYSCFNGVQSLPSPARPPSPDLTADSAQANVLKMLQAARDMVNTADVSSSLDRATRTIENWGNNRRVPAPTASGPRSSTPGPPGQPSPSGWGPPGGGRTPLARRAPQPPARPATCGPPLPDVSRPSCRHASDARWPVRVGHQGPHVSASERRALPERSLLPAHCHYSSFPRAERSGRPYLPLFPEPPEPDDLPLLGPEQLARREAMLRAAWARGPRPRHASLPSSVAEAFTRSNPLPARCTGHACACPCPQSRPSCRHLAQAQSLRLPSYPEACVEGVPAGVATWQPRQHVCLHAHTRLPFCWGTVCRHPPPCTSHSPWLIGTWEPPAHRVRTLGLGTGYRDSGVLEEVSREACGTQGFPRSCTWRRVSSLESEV

What was measured:
[1] = target: Ionotropic glutamate receptor NMDA 1/2D (Rattus norvegicus) (UniProt P35439+Q62645); assay: Positive allosteric modulation of recombinant rat GluN1/GluN2D receptor expressed in xenopus laevis oocyte assessed as potentiation of glutamate and glycine-induced current response at 30 uM at holding potential -40mV by two electrode voltage clamp method relative to control
In short: (§1)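 Two-electrode voltage clamp at -40 mV, 23°C, pH 7.4 Ba²⁺ recording solution, on Xenopus oocytes expressing rat NMDA receptors. Currents were evoked by 100 µM glutamate plus 30 µM glycine, with compound co-applied (DMSO 0.05–0.5% final). […] Each compound used at least 4 oocytes from at least 2 frogs.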

[2] = target: Glutamate NMDA receptor; Grin1/Grin2c (Rattus norvegicus) (UniProt P35439+Q00961); assay: Positive allosteric modulation of recombinant rat GluN1/GluN2C receptor expressed in xenopus laevis oocyte assessed as potentiation of glutamate and glycine-induced current response at 30 uM at holding potential -40mV by two electrode voltage clamp method relative to control; in short: as §1

Row | SMILES | Activity [1] [%] | Activity [2] [%] | Emax [2] [%]
1 | CCOc1ccc(OCC2c3ccc(OC(C)C)cc3CCN2C(=O)c2cccc(C(F)(F)F)c2)cc1 (centres undefined) | 95 | 129 | 130
2 | COc1ccc(OCC2c3ccc(OC)cc3CCN2C(=O)c2cccc(Cl)c2)cc1 (centres undefined) | – | – | 240
